We go through 1 compound from ChEMBL document CHEMBL4219051, “Cyclin-Dependent Kinase 8: A New Hope in Targeted Cancer Therapy?” (J Med Chem, 2018).

Protein sequences, listed by entry. Tags and fused reporters are not part of them. Lines headed by an entry give the natural chain unless they say otherwise; changes in a name come on top.
UniProt P49336: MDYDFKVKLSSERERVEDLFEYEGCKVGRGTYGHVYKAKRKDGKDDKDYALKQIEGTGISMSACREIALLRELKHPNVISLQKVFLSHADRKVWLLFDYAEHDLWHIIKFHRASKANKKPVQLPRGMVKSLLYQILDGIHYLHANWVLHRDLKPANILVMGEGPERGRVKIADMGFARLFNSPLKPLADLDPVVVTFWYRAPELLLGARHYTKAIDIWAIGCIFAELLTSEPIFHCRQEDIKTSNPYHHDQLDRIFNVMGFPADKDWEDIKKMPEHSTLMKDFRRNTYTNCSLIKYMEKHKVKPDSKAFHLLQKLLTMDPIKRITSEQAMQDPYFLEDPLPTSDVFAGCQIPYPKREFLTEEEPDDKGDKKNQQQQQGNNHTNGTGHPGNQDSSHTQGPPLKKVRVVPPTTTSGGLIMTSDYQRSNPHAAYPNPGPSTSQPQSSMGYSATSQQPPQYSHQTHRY
UniProt Q9BWU1: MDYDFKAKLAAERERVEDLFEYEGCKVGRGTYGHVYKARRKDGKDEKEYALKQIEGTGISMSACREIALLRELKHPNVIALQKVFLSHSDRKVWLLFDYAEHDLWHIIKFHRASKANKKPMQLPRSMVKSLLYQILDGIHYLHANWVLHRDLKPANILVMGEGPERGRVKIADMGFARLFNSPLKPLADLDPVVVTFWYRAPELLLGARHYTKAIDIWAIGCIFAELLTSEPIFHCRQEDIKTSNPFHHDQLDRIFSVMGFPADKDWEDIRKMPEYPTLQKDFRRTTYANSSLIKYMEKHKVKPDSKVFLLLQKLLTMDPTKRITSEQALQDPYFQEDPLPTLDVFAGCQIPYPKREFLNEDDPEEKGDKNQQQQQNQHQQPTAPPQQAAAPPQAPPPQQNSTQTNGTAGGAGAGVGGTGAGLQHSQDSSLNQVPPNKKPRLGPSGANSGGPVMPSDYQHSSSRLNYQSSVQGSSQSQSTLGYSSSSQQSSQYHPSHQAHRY

The IC50 is the concentration that inhibits the measured activity by half.

For one assay, the target named is CDK8/Cyclin C (Homo sapiens, UniProt P49336). Nature of the assay: Inhibition of CDK8/Cyclin-C (unknown origin) in presence of [gamma33P]ATP by radiometric method. In kind it is protein-complex assay.
In assay [1] the target is Cyclin-C/Cyclin-dependent kinase 19 (Homo sapiens, UniProt Q9BWU1). Nature of the assay: Inhibition of CDK19/Cyclin-C (unknown origin) in presence of [gamma33P]ATP by radiometric method. In kind it is protein-complex assay.

As to `CN1CCN(C(=O)c2ccc3cc(CCNc4ncnc5ccc(C#N)cc45)ccc3c2)CC1` [SENEXIN B], the IC50 at CDK8/Cyclin C is 24 to 50 nM; in assay [1] it was 4.2 nM.
